Test results published in patent publication US20230331817A1 (The Regents of the University of California, priority 2020, published 2023).
Several values for one entry are separate records, joined by “and”; a condition that tells them apart may be missing. Equal values may be shown once.

How the values were obtained:
[1] = biological target: plasma kallikrein (human) (UniProt P03952); assay: protease amidolytic inhibition, tight-binding equation
human plasmin [2] = biological target: T1, human plasmin (Homo sapiens, UniProt P00747); assay: as above
factor XIa (human) = factor XIa (human) (UniProt P03951); assay: as above
human plasmin [3] = biological target: T1, human plasmin; assay: plasmin amidolytic inhibition, slow tight binding equation
human plasmin [4] = biological target: T1, human plasmin; assay: residual amidolytic activity of 3 nM human plasmin after incubation with the inhibitor (chromogenic substrate); the axis is labelled KD1TM (nM), the legend gives the same range for BPTI
human plasmin [5] = biological target: T1, human plasmin; assay: residual activity of 3 nM plasmin (percent fractional activity by the legend; the axis is labelled % Pm Inhibition), substrate S-2251 [A]
human plasmin [6] = biological target: T1, human plasmin; assay: amidolytic inhibition of 3 nM plasmin, tight-binding equation

Substance | Ki [1] | Ki (human plasmin [2]) | Ki (factor XIa (human)) | Ki (human plasmin [3]) | IC50 (read off the curve) (human plasmin [4]) | IC50 (read off the curve) (human plasmin [5]) | Ki (human plasmin [6])
aprotinin (from UniProt P00974 36-93) | 18 nM | – | – | – | – | – | –
aprotinin (from UniProt P00974 36-93) (other; other documents disagree on this pair) | – | 0.5 nM | 326 nM | 0.4 nM and 0.5 nM | 2 nM | 2 to 3 nM | 0.49 nM
